# AlphaSeq binding of Ab-14 heavy chain variants to a spike HR2 peptide

Data: MIT Lincoln Laboratory AlphaSeq set, Li et al. 2023, doi:10.1038/s41467-023-39022-2, as distributed in FLAb.

The target is the same throughout: PDVDLGDISGINAS, from the HR2 region of SARS-CoV-2 spike.

Parent: Ab-14, a human scFv built as VH, a (GGGGS)3 linker, VL. Only the CDRs of the heavy chain vary.
VH: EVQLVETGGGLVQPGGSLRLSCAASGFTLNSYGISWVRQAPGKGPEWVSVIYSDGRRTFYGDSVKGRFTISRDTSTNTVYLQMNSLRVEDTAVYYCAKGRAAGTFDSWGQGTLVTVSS
VL: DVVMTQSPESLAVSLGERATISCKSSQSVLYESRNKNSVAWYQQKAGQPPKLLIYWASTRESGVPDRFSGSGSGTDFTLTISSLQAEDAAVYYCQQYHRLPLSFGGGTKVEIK

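Phage display of a naive human antibody library on the peptide gave the parent. These sequences belong to a second round, designed from the earlier measurements on random variants of the parent. Group labels follow the data file (Ctrl: baseline library sampled from a position-specific scoring matrix, with some repeated check sequences; GPLM: also part of the Gaussian process libraries; Gen: genetic algorithm; a sequence that several methods proposed may carry one label only). In AlphaSeq, yeast of one mating type display the scFv and yeast of the other type display the target. Mating (16 h, 30 °C) was followed by selection of diploids and sequencing of their barcodes. A regression on co-assayed BCL2-family reference pairs converts the normalised counts of each replicate to an apparent Kd. The assay was run in six technical replicates.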

Each variant is given by its three heavy chain CDRs, as the data file delimits them; those of the parent are GFTLNSYGIS, VIYSDGRRTFYGDSVK, GRAAGTFDS. Scale: log10 of Kd in nM, estimated from mating counts; low values are strong binders. Replicates are averaged; those with no signal do not enter the mean. An entry "nd" has no value in the source: the pair was not observed among the diploids in that replicate. This suggests poor binding but is not conclusive. Some sequences occur more than once in the pool; their replicates are listed entry by entry, parted by semicolons. Nonspecific signal, from three strains lacking the peptide, appeared in 1% of pairings of all heavy chain designs, centred on 2.08 (5% of these signals below 0.84); values are not corrected for it. Also given: how often the same scFv was detected with the empty control strains. In the paper, a design with two or fewer of six values counts as a poor binder. The parent sequence was in this pool as ten entries: three were never detected, three once, and four in most replicates, with averages from 0.34 to 2.37. Values of this round are not directly comparable with the first-round values of the same sequences.

Variant GFTLNEYGIS, VIYADGRRTFYGDSVK, GRAAGTFDS [Ctrl+GPLM_Gen] showed 0.04, -0.43, -0.35, -0.60, -0.51, -0.27; -0.72, -0.77, -0.72, -0.89, -0.78, -0.59 (mean -0.55; controls 2 of 36).
Variant GFTLSSYGIS, VIYSDGRRTFYGDSVA, VRAAGLFDS [Ctrl] showed nd, nd, nd, nd, nd, nd (controls 1 of 18).
Variant GFSLNSYGIS, VIYSDGRRTFYGDSVR, GSAAGTFDM [Ctrl] showed 2.08, 1.14, 0.22, 0.62, 1.75, 0.87 (mean 1.11; controls 0 of 18).
Variant GFNLNSYGIS, VIYSDGRRTFYGDSVK, GRAQGTFDS [Ctrl] showed nd, nd, nd, nd, nd, nd (controls 1 of 18).
Variant GFTLNKYGIS, VIYSDGRRTFYSDSVK, GRDAGTFDS [Ctrl] showed nd, 1.26, 1.64, 0.42, 2.13, 0.80 (mean 1.25; controls 0 of 18).
Variant GFTLNSYGIS, VIYSDGRRTFYSDAVR, GKAAGTFKS [Ctrl] showed 1.35, 1.66, 1.00, 1.16, 1.92, 1.63 (mean 1.45; controls 1 of 18).
Variant GFPLNSYGIS, VIYSDGRRTFYGDSVK, GRWAGTFTQ [Ctrl] showed nd, nd, nd, 2.55, nd, nd (controls 0 of 18).
Variant GFHLNSYGIS, VIYSDGRRTFYGPSVK, GRAAGTFES [Ctrl] showed nd, nd, nd, nd, nd, nd (controls 0 of 18).
Variant GFTLNSYGIS, VIYSDGERTFYHDSVK, GRAAGTFDW [Ctrl] showed nd, nd, nd, 0.29, nd, 1.48 (mean 0.88; controls 0 of 18).
Variant GFTLNEYGIS, VIYSDGWRTFYTDKVK, GKAACTFDI [Ctrl] showed nd, nd, nd, nd, nd, nd (controls 0 of 18).
Variant GFTLNSYGIS, VIYSDGRREFYGDSVK, GRYAGTFDS [Ctrl] showed nd, nd, nd, nd, nd, nd (controls 1 of 18).
Variant RFNLNKYGIS, VIYSDGRVTGYGDSVK, GGNYGTFDS [Ctrl] showed nd, nd, nd, nd, nd, nd (controls 0 of 18).
Variant GFVLNDYGIS, VIYSDGRRTFYGWSVK, GRAAGTFDS [Ctrl] showed nd, nd, nd, nd, nd, nd (controls 0 of 18).
Variant GFTLNSYGIS, VIYSDGRRTFYEDSVK, GRAAGTFDS [Ctrl] showed 1.58, nd, 0.81, nd, nd, nd (mean 1.19; controls 0 of 18).
Variant GFTLNSYGIS, VIYSDGRRTHYGDSVK, GRAAGTFDS [Ctrl] showed nd, nd, nd, nd, nd, nd (controls 0 of 18).
Variant GFTLNSYGIS, VIYSDGRRTFYGDSVK, VREAGTFSS [Ctrl] showed nd, nd, nd, nd, nd, 3.08 (controls 1 of 18).
Variant GFTLLSYGIS, VIYSDGRRTFYGDSVK, GRAAGVFDS [Ctrl] showed nd, nd, nd, nd, nd, nd (controls 1 of 18).
Variant GFTLNSYGIS, VIYADGRRTFMGDSVK, GRLADHFDS [Ctrl] showed nd, nd, nd, nd, nd, nd (controls 0 of 18).
Variant GFTLNSYGIS, VIYSDGRRTFYGDSVS, GRASGTFDS [Ctrl] showed nd, nd, nd, nd, nd, nd (controls 0 of 18).
Variant GFTLNQYGIS, VIYSDGRRTFYGPSVK, GKAAGTFDS [Ctrl] showed 1.49, 1.61, 2.21, nd, 1.94, 2.13 (mean 1.88; controls 0 of 18).
Variant GFTLNSYGIS, VIYSDGCRTFYGDSVK, GRLAGTFDS [Ctrl] showed nd, 2.39, 2.83, 2.61, nd, nd (mean 2.61; controls 0 of 18).
Variant GFTLNCYGIS, VIYSDGQRTFYGDSVK, GRRAGTFDS [Ctrl] showed nd, nd, nd, nd, nd, nd (controls 0 of 18).
Variant GFTLNSYGIS, VIYSDGHRTFYQDSVK, GRAAGTFDS [Ctrl] showed nd, 3.40, nd, nd, nd, nd (controls 0 of 18).
Variant GFDLNMYGIS, VIYSDGRRKFYGDSVK, GSSAGTFDS [Ctrl] showed 0.42, 0.66, 0.36, 0.33, 0.44, 1.14 (mean 0.56; controls 0 of 18).
Variant GFTLNSYGIS, VIYSDGRRTFYGDSVK, GRAAGAFDS [Ctrl] showed nd, nd, nd, nd, nd, nd (controls 1 of 18).
Variant GFRLDSYGIS, IIYSDGRRTFYGDSVK, GRPAGTFDS [Ctrl] showed nd, nd, nd, nd, nd, nd (controls 0 of 18).
Variant GFTLNSYGIS, VIYSDGYRTVYNDSVK, GRAAGTFES [Ctrl] showed nd, nd, nd, nd, nd, nd (controls 0 of 18).
Variant GFTLNSYGIS, VIYSDGRRTFYLDSVK, GGAAGTFDY [Ctrl] showed nd, 2.00, nd, nd, nd, nd (controls 0 of 18).
Variant GFNLNSYGIS, VIYSDGRRTFYGDSVK, GREAGTFDS [Ctrl+GPLM_Gen] showed 0.44, -0.28, -0.12, 0.23, -0.25, -0.09; 0.19, 0.14, -0.05, -0.08, 0.19, 0.70 (mean 0.08; controls 0 of 36).
Variant GFKLNSYGIS, VIYSDGRRTFYGDSVK, QRAAGTVDS [Ctrl] showed nd, nd, nd, nd, nd, nd (controls 0 of 18).
Variant GFTLNSYGIS, VIYSDGRRTFYIDSFK, GRAAGTFES [Ctrl] showed nd, nd, nd, nd, nd, nd (controls 0 of 18).
Variant GFTLNSYGIS, VIYSDGRRTFYGDSLK, GQAAGVFDT [Ctrl] showed nd, nd, nd, nd, nd, nd (controls 0 of 18).
Variant GETLNSYGIS, VIYSDGLRTAYGDSVK, GRWGGFFDS [Ctrl] showed nd, nd, nd, nd, nd, nd (controls 0 of 18).
Variant GFSILEYGIS, VIYSDGRRTAYDDSVK, GRDTGTFDS [Ctrl] showed nd, nd, nd, nd, nd, nd (controls 1 of 18).
Variant GFNLNSYGIS, VIYSDGRRTFYGDSVK, GRQAGRFDL [Ctrl] showed nd, nd, nd, nd, nd, nd (controls 0 of 18).
Variant GFTLGSYGIS, VIYSDGRRTFYGDSVK, GRRIGTADS [Ctrl] showed nd, nd, nd, nd, nd, nd (controls 0 of 18).

Excerpt, the final 4 entries:

CDR-H1,CDR-H2,CDR-H3,group,log10 Kd (nM) by replicate,"log10 Kd (nM), mean",control signals
GETLNSYGIS,VIYSDGLRTAYGDSVK,GRWGGFFDS,Ctrl,"nd, nd, nd, nd, nd, nd",nd,0/18
GFSILEYGIS,VIYSDGRRTAYDDSVK,GRDTGTFDS,Ctrl,"nd, nd, nd, nd, nd, nd",nd,1/18
GFNLNSYGIS,VIYSDGRRTFYGDSVK,GRQAGRFDL,Ctrl,"nd, nd, nd, nd, nd, nd",nd,0/18
GFTLGSYGIS,VIYSDGRRTFYGDSVK,GRRIGTADS,Ctrl,"nd, nd, nd, nd, nd, nd",nd,0/18